# In patent publication US8436005B2, “Macrocyclic pyrimidine derivatives” (Abbott Laboratories, priority 2008, dated 2013):
# Amino acid sequences for entries named in this document (tags omitted).
# UniProt Q9H3N8, whole entry, species assumed: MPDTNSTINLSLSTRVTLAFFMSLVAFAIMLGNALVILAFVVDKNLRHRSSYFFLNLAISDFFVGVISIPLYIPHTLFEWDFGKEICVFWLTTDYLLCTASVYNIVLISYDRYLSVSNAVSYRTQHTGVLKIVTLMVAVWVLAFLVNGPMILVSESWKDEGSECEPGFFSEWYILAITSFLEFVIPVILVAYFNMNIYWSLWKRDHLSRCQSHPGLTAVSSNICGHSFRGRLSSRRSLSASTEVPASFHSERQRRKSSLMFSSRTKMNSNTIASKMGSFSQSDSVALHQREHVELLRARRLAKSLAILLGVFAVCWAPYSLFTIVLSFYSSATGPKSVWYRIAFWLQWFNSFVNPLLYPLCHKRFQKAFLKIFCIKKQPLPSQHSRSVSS
# Like-named read-outs stand apart in the source and are kept apart here.
# Columns and labels:
# histamine H4 receptor [1] = molecular target: T1, histamine H4 receptor (Homo sapiens, UniProt Q9H3N8); assay: In vitro histamine H4 potency in FLIPR (Ca2+ flux, Fluo-4, HEK-293 cells coexpressing Gαqi5); format: cell-based; design: expressed in transfected cells; settings: HEK-293 cells stably expressing histamine H4 receptor and Gαqi5
# histamine H4 receptor [2] = molecular target: T1, histamine H4 receptor; assay: biochemical
# histamine H4 receptor [3] = molecular target: T1, histamine H4 receptor; settings: read-out: Potency (Ki by Cheng-Prusoff, displacement of [3H]-histamine); membranes of transfected HEK-293 cells, 25° C., 1 hour
SMILES,"Potency (Kb for antagonists and inverse agonists, EC50 for partial agonists) (histamine H4 receptor [1]) [nM]",Ki (histamine H4 receptor [2]) [nM],Ki (histamine H4 receptor [3]) [nM]
"CC1(C)CCCCc2c(N3CC[C@@H](N)C3)nc(N)nc21 [Example 1, (R)-4-(3-aminopyrrolidin-1-yl)-9,9-dimethyl-6,7,8,9-tetrahydro-5H-cyclohepta[d]pyrimidin-2-amine]",35,–,–
"COC1(OC)CCCc2c(N3CCNCC3)nc(N)nc21 [Example 12, 8,8-dimethoxy-4-(piperazin-1-yl)-5,6,7,8-tetrahydroquinazolin-2-amine]",133,–,–
"Nc1nc2c(c(N3CCNCC3)n1)CCCCC2c1ccccc1 (stereo not shown) [Example 19, 9-phenyl-4-(piperazin-1-yl)-6,7,8,9-tetrahydro-5H-cyclohepta[d]pyrimidin-2-amine]",58,–,40
"CCC1(CC)CCCCc2c(N3CC[C@@H](N)C3)nc(N)nc21 [Example 3, (R)-4-(3-aminopyrrolidin-1-yl)-9,9-diethyl-6,7,8,9-tetrahydro-5H-cyclohepta[d]pyrimidin-2-amine]",78,–,–

# More lines, now with the values ahead:
"Potency (Kb for antagonists and inverse agonists, EC50 for partial agonists) (histamine H4 receptor [1]) [nM]",Ki (histamine H4 receptor [2]) [nM],Ki (histamine H4 receptor [3]) [nM],SMILES
26,4.4,–,"Nc1nc2c(c(N3CC4CCCNC4C3)n1)CCCCC2c1ccccc1 (stereo not shown) [Example 20, 9-phenyl-4-tetrahydro-1H-pyrrolo[3,4-b]pyridine-6(2H,7H,7aH)-6,7,8,9-tetrahydro-5H-cyclohepta[d]pyrimidin-2-amine]"
13,2.8,–,"Nc1nc2c(c(N3C[C@H]4CCCN[C@H]4C3)n1)CCCCC2c1ccccc1 (stereo partly drawn) [Example 21, 9-phenyl-4-((4aR,7aR)-tetrahydro-1H-pyrrolo[3,4-b]pyridin-6(2H,7H,7aH)-yl)-6,7,8,9-tetrahydro-5H-cyclohepta[d]pyrimidin-2-amine]"
2700,–,–,"Nc1nc2c(c(N3CC(N)C3)n1)CCCC(c1ccccc1)C2 (stereo not shown) [Example 8, 4-(3-aminoazetidin-1-yl)-8-phenyl-6,7,8,9-tetrahydro-5H-cyclohepta[d]pyrimidin-2-amine]"
